Molecular target: T1, human IGF-1R (Homo sapiens, UniProt P08069)
T1 construct: expressed in transfected cells; host or cells: clone HTL5B8.1 (HEK-293T line with a tTA-dependent luciferase reporter)
Test: IGF1R-tTA + SHC1-TEV luciferase reporter assay, HTL5B8.1 cells
Format: cell-based
Conditions: 1 μM; 24 hours

human Insulin-like Growth Factor 1: specific receptor agonist for IGF1R
increase of luciferase reporter gene activity: 90 fold

Reference: patent publication US8017398B2, “Method for assaying protein-protein interaction” (Life Technologies Corporation, priority 2003, dated 2011)
